Test results taken from ChEMBL document CHEMBL2321737, “Selective inhibition of glycosyltransferases by bivalent imidazolium salts” (Bioorg Med Chem, 2013).

Assay: Inhibition of human GNT1 using Man3-octyl as substrate at 0.5 mM after 1 hr in presence of phosphatidylcholine

C[n+]1ccn(CCCCCCCCCCCCCCCCCCCCCCn2cc[n+](C)c2)c1
inhibition: < 1%
